Chains of the proteins cited; added tags and fusions are not shown. Lines headed by an entry give the natural chain unless they say otherwise; changes in a name come on top.
UniProt P41146: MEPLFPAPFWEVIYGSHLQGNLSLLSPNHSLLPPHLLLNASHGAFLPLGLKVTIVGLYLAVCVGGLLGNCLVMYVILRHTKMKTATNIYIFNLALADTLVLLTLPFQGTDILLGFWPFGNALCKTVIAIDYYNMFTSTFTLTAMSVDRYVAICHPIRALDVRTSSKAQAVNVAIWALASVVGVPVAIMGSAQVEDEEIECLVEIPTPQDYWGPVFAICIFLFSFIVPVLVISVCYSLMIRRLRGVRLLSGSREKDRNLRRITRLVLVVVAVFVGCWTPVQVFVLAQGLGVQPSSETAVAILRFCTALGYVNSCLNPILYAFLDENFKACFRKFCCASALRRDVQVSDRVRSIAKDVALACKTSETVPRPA
UniProt P35372, whole entry, looked up: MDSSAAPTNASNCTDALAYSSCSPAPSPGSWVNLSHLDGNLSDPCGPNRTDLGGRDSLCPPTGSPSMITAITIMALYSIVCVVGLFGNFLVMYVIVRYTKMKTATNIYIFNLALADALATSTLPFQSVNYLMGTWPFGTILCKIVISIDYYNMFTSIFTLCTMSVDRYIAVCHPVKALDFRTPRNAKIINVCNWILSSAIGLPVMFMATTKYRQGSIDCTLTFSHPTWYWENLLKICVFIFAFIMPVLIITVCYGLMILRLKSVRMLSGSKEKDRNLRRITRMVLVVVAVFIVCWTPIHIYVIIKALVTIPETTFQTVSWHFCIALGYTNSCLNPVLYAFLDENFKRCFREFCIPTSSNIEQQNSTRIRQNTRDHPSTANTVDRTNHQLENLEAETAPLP

According to patent US10202345B2, “Substituted azaspiro(4.5)decane derivatives” (priority 2014, dated 2019):

Tests used:
ORL1 receptor = ORL1 receptor (Homo sapiens, UniProt P41146); test: ORL1 receptor binding assay with 3H-nociceptin/orphanin FQ (WGA-SPA beads); conditions: for Ki: read-out: Ki (ORL1) mean, mean; for % inhibition (ORL1) [1 μM]: test concentration 1 μM
rats [1] = conditions: for SNL rat, i.v. % MPE (@μg/kg): @21.5 μg/kg
rats [2] = test: Analgesia in the tail flick (focal ray) test in rats, intravenous administration
human μ opiate receptor = human μ opiate receptor (Homo sapiens, UniProt P35372); test: μ opiate receptor binding assay with [3H]-naloxone (WGA-SPA beads); conditions: for Ki: read-out: Ki (μ) mean [μm], mean; for % inhibition (μ) [1 μM]: test concentration 1 μM

Row | SMILES | Ki (ORL1 receptor) | % inhibition (ORL1) [1 μM] (ORL1 receptor) | SNL rat, i.v. ED50 rat [μg/kg] (rats [1]) | Tail flick rat, i.v. ED50 rat [μg/kg] (rats [2]) | Ki (human μ opiate receptor) | % inhibition (μ) [1 μM] (human μ opiate receptor) | SNL rat, i.v. % MPE (@μg/kg) (rats [1])
1 | CCCC(=O)N1CCC2(CCC(c3ccccc3)(N(C)C)CC2)C1 (stereo not drawn) | 5.85 nM | 81.5% | 100 µg/kg | 157 µg/kg | 30.5 nM | 93% | –
2 | CN(C)C1(C2CCCC2)CCC2(CCN(C(=O)CC3CC3)C2)CC1 (stereo not drawn) | 29.5 nM | 79% | 2.44 µg/kg | 5.43 µg/kg | 4.05 nM | 99.5% | –
3 | CN(C)C1(C2CCCC2)CCC2(CCN(CCC3CC3)C2)CC1 (stereo not drawn) | 15.5 nM | 88.5% | 107 µg/kg | 162 µg/kg | 2.45 nM | 98.5% | –
4 | CCCC(=O)N1CCC2(CCC(c3cccs3)(N(C)C)CC2)C1 (stereo not drawn) | 9.6 nM | 82.5% | 30 µg/kg | 26 µg/kg | 2.27 nM | 98.5% | –
5 | CN(C)C1(c2ccccc2)CCC2(CCN(C(=O)CC3(C#N)CCC3)C2)CC1 (stereo not drawn) | 0.75 nM | 96.5% | – | 15.2 µg/kg | 1.04 nM | 100.5% | 65%@21.5
6 | CN(C)C1(c2ccccc2)CCC2(CCN(C(=O)CC3CCCO3)C2)CC1 (stereo not drawn) | 1.11 nM | 97% | – | 16.2 µg/kg | 1.15 nM | 99.5% | 69%@21.5
